Laboratory results: patent US20030144346A1, “Methods and compositions for regulation of 5-alpha reductase activity” (priority 1997, published 2003)

Tests used:
[1] = molecular target: T1, type 1 human 5α-reductase (HRED1) (Homo sapiens, UniProt P18405); test: Whole cell assay of 5α-reductase, type 1 isoenzyme; assay type: cell-based; set-up: expressed in transfected cells; host or cells: rat 1A cells infected with pMV7 retrovirus; settings: Table 7;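 also: intact rat 1A cells engineered to express the human type 1 5α-reductase isozyme serve as the enzyme source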
T1 sequence (P18405 1-259): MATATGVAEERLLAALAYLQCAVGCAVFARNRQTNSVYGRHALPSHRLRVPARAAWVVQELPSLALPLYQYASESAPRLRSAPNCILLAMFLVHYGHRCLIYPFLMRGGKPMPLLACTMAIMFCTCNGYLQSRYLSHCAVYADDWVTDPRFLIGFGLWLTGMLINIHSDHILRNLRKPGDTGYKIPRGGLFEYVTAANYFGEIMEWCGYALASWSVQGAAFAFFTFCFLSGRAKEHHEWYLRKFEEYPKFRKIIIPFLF

[2] = molecular target: T2, type 2 human 5α-reductase (HRED2) (Homo sapiens, UniProt P31213); test: Whole cell assay of 5α-reductase, type 2 isoenzyme; assay type: cell-based; set-up: expressed in transfected cells; host or cells: rat 1A cells infected with pMV7 retrovirus; settings: Table 7, read-out: HCRED2 IC50;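 also: intact rat 1A cells genetically modified to carry human type 2 5α-reductase served as the enzyme source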
T2 sequence (P31213 1-254): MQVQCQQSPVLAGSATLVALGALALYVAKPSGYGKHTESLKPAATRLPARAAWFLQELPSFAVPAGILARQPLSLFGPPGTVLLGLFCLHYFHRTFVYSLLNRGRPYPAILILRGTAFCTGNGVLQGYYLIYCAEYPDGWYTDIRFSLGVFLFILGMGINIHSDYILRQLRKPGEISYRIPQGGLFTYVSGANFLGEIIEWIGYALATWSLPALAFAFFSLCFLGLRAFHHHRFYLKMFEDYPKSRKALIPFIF

[3] = molecular target: T2, type 2 human 5α-reductase (HRED2); test: Cell free assay of 5α-reductase, microsomes of rat 1A cells expressing type 2 isoenzyme (HRED2); assay type: biochemical; set-up: expressed in transfected cells; host or cells: rat 1A cells infected with pMV7 retrovirus; microsomes;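 also: labeled testosterone and its product dihydrotestosterone measured in microsomal reaction extracts via thin layer chromatography plus radioanalytic scanning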
[4] = molecular target: T1, type 1 human 5α-reductase (HRED1); test: Cell free assay of 5α-reductase, microsomes of rat 1A cells expressing type 1 isoenzyme (HRED1); assay type: biochemical; set-up: expressed in transfected cells; host or cells: rat 1A cells infected with pMV7 retrovirus; microsomes;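 also: microsomes from rat 1A cells expressing human type 1 5α-reductase, conversion of radiolabeled testosterone to dihydrotestosterone quantified by thin layer chromatography with radioanalytic scanning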

inhibition at 100 µM ([1]; 100 μM, whole cell assay): 22% | IC50 ([1]; HCRED1 IC50, whole cell assay): > 100 µM | IC50 [2]: 20 µM | IC50 [3]: 23 µM | IC50 [4]: > 100 µM
SMILES: O=c1c(-c2ccc(O)cc2)coc2cc(O)cc(O)c12 [Genistein]
